Experiments:
[1] = In vivo pharmacokinetic evaluation in cynomolgus monkeys; settings: male cynomolgus monkeys, compound 6-1 (hydrochloride)
Method: 4. In Vivo Pharmacokinetic Evaluation in Cynomolgus Monkeys
(§1) Purpose of the Experiment:
Detection of pharmacokinetic parameters of the compounds of the present disclosure in cynomolgus monkeys
Experimental drug: compound 6-1 (hydrochloride);
Experimental animals: 4 male cynomolgus monkeys were randomly divided into 2 groups, 2 in each group;
Drug preparation: an appropriate amount of drug was weighed, and dissolved in a mixed solvent of DMAC:slolutol:water=10:10:80, and two kinds of solution 1 mg/mL and 2 mg/mL were prepared;
Animals in group 1 were given the drug at a single dose of 1 mg/kg at a concentration of 1 mg/mL by tail vein injection, and animals in group 2 were given compound at a dose of 10 mg/kg at a concentration of 2 mg/mL by gavage. Plasma samples were collected from animals at 0.0833 (tail vein injection group only), 0.25, 0.5, 1, 2, 4, 6, 8 and 24 hours after administration. The drug concentration in the plasma samples was determined by LC-MS/MS method, and the kinetic parameters of the tested drug were obtained as shown in Table 4: […]

Amino acid sequences for entries named in this document (tags omitted). Residues count along the entry.
UniProt P03951, 388-625 limits assumed: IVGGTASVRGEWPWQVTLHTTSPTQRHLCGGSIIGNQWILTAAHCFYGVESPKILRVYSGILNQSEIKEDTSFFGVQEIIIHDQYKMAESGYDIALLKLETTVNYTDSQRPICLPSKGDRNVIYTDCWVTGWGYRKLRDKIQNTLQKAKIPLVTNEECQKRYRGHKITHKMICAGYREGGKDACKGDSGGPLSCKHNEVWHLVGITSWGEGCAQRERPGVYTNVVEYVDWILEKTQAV
UniProt P03951, 19-387 partner limits assumed: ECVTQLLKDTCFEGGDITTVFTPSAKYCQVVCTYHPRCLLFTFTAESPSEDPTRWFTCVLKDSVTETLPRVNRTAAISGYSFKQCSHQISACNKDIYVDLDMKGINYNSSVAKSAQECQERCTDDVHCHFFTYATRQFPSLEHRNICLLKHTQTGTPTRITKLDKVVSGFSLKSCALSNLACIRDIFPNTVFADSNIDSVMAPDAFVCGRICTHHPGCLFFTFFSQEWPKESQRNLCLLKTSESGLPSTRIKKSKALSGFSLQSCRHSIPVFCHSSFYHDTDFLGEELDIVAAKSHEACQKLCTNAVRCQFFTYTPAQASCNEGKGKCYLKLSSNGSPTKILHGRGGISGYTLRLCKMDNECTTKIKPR

[2] = test system: human plasma; assay: Determination of aPTT (activated partial thromboplastin time) in human plasma in vitro; settings: coagulation time
Excerpt: 2. Determination of aPTT (Activated Partial Thromboplastin Time) in Human Plasma In Vitro
as §1
Detection of the anticoagulant effect of the compounds of the present disclosure on human plasma in vitro
1) Coagulation quality control plasma: produced by TECO, Germany, batch number: 093B-J186A
2) aPTT test solution: produced by TECO, Germany, batch number: 20002745; CaCl2): produced by TECO, Germany, batch number: 031N-J073A; DMSO: Sangon Bioengineering (Shanghai) Co., Ltd., batch number: BB02BA0001
3) Instrument: Germany Meichuang MC-4000 blood coagulation instrument
1) Sample solution preparation: 10 mM compound stock solution was prepared with DMSO, and then serially diluted with DMSO as follows: […], 2500, 625, 156.25, 39.06, 9.76, 2.44 μM; then series of concentrations were diluted with tris(hydroxymethylaminomethane) buffer (containing 5% Tween 80) 10 times for use, and the drug to plasma volume ratio was 1:9 during detection. […]
4) Test detection: According to the instructions of the kit, the sample solution to be tested or the reference solution were added into the 37° C. preheated colorimetric cup, preheated at 37° C. for 2 min, aPTT reagent was added, incubated at 37° C. for 3 min, 0.02 M CaCl2 (preheated at 37° C.) was added, and the coagulation time was recorded.

[3] = In vivo pharmacokinetic evaluation in rats; settings: male SD rats
Method: 3. In Vivo Pharmacokinetic Evaluation in Rats
as §1
Detection of pharmacokinetic parameters of the compounds of the present disclosure in rats.
1) Experimental drug: compound 6-1;
2) Experimental animals: 4 male SD rats aged 7-9 weeks were randomly divided into 2 groups with 2 rats in each group;
3) Drug preparation: an appropriate amount of drug was weighed, and dissolved in a mixed solvent of DMAC:slolutol:water=10:10:80, and two kinds of solution 0.2 mg/mL and 0.5 mg/mL were prepared;
Animals in group 1 were given the drug at a single dose of 0.5 mg/kg at a concentration of 0.2 mg/mL by tail vein injection, and animals in group 2 were given compound at a dose of 3 mg/kg at a concentration of 0.5 mg/mL by gavage. Plasma samples were collected from animals at 0.0833 (tail vein injection group only), 0.25, 0.5, 1, 2, 4, 6, 8 and 24 hours after administration. The LC-MS/MS method was used to determine the drug concentration in the plasma samples, and the kinetic parameters of the tested drugs were obtained as shown in Table 3: […]

[4] = target: human factor XIa (Homo sapiens, UniProt P03951); assay: Screening test of enzyme inhibitory activity on hFXIa; settings: read-out: hFXIa IC50; substrate S-2366/S-2306, 37° C. 10 minutes, absorbance 405 nm, pH 7.4
Method: 1. Screening Test of Enzyme Inhibitory Activity on hFXIa (Human Factor XIa)
as §1
Detection of the inhibitory activity of the compounds of the present disclosure on human factor XIa
1) Experimental buffer pH 7.4
100 mM Tris-HCl (Sigma, catalog number: T2663, batch number: SLBG2775)
200 mM NaCl (Sigma, catalog number: 13423, batch number: SZBB2360V)
2) Enzymes and Substrates
Enzyme, Human Factor XIa (Human Factor XIa, Abcam, Cat #ab62411): Total amount: 50 μg. Dissolved with experimental buffer and packed separately.
Substrate S-2366 (DiaPharma, catalog number: S821090): 25 mg
3) Instruments and Consumables
SpectraMax 340PC Multifunctional Microplate Reader (Molecular Devices)
384-well black transparent reaction plate (Corning Cata #3712)
Echo Liquid Workstation (Labcyte)
Echo 384-well polypropylene compound plate (Labcyte-P-05525) was used.
Echo 384 Shallow Pore Polypropylene Compound plate (Labcyte-LP-0200, 2.5-12 μL) was used.
Multidrop automatic dispenser (Thermo Scientific)
Multidrop Consumables (Thermo Scientific-24073290) […]
7) The reaction plate was placed in SpectraMax 340PC and incubated at 37° C. for 10 minutes, and the absorbance was detected at 405 nm.
8) Data were analyzed using GraphPad Prism 5.0
% Inhibition rate=100%×[1−(sample reading-low signal average value)/(high signal average value-low signal average value)]
IC50 was analyzed using 4-factor linear regression: […]

Row | Curve area AUC ([1]; gavage 10 mg/kg) [µM·h] | Peak time Tmax ([1]; gavage 10 mg/kg) [min] | Curve area AUC ([1]; tail vein injection 1 mg/kg) [µM·h] | Distribution volume Vd ([1]; tail vein injection 1 mg/kg) [L/kg] | C0 ([1]; read-out: Initial concentration C0, tail vein injection 1 mg/kg) [µM] | Cmax ([1]; read-out: Peak concentration Cmax, gavage 10 mg/kg) [µM] | Bioavailability F ([3]; gavage 3 mg/kg) [%] | Curve area AUC ([3]; gavage 3 mg/kg) [µM·h] | Peak time Tmax ([3]; gavage 3 mg/kg) [min] | Clearance rate Cl ([3]; tail vein injection 0.5 mg/kg) [mL/min/kg] | Curve area AUC ([3]; tail vein injection 0.5 mg/kg) [µM·h] | Distribution volume Vd ([3]; tail vein injection 0.5 mg/kg) [L/kg] | Half-life T1/2 ([3]; tail vein injection 0.5 mg/kg) [min] | C0 ([3]; read-out: Initial concentration C0, tail vein injection 0.5 mg/kg) [µM] | Cmax ([3]; read-out: Peak concentration Cmax, gavage 3 mg/kg) [µM] | IC50 [4] [nM] | Compound | aPTT2x [2] [µM]
1 | 11.953 | 180 | 3.25 | 0.619 | 4.53 | 2.23 | 10.8 | 5.105 | 15 | 1.84 | 7.929 | 0.11 | 58.3 | 16.1 | 3.75 |  | [2H]C([2H])([2H])n1ncc2c1-c1ccnc(c1)C(c1coc(-c3cc(Cl)ccc3-n3cc(Cl)nn3)cc1=O)CCC[C@@H](C)C(=O)N2 (stereo partly drawn) | 2.69
2 |  |  |  |  |  |  |  |  |  |  |  |  |  |  |  | 3.94 | CC1CCCC(c2coc(-c3c(-n4cc(Cl)nn4)ccc(Cl)c3F)cc2=O)c2cc(ccn2)-c2c(cnn2C(F)F)NC1=O (single isomer, unassigned) [Compound 5-2] | 
3 |  |  |  |  |  |  |  |  |  |  |  |  |  |  |  | 9.56 | CC1CCCC(c2coc(-c3c(-n4cc(Cl)nn4)ccc(Cl)c3F)cc2=O)c2cc(ccn2)-c2c(cnn2C(F)F)NC1=O (single isomer, unassigned) [Compound 5-1] | 

— patent US20220281868A1, “MACROCYCLIC DERIVATIVES AS FACTOR XIA INHIBITORS” (MEDSHINE DISCOVERY INC., priority 2019, published 2022)
